According to patent US8828401B2, “Cytotoxic peptides and antibody drug conjugates thereof” (Pfizer Inc., priority 2011, dated 2014):

Experiments:
N87 (gastric cancer) = experiment: In vitro cell assay, MTS cell viability 96 hours after treatment; type: cell-based; conditions: read-out: N87 GMEAN IC50, N87 cells; geometric mean; cytotoxic peptides
Protocol: (§1) Cells were treated with 3-fold serially diluted antibody-drug conjugates or free compounds (i.e., no antibody conjugated to the drug) in duplicate at 10 concentrations. Cell viability was determined by CellTiter 96® AQueous One Solution Cell Proliferation MTS Assay (Promega, Madison Wis.) 96 hours after treatment. Relative cell viability was determined as percentage of untreated control.

[1] = system: Her2+ MDAMB-361 DYT2 cell line; experiment: In vivo MDAMB-361 DYT2 tumor xenograft model; set-up: species or system irradiated nude mice; conditions: unconjugated antibody at equivalent antibody concentrations; HERCEPTIN® in vivo studies
Protocol: In vivo efficacy studies of antibody-drug conjugates were performed with the Her2+MDAMB-361 DYT2 cell line. For efficacy studies, 10 million tumor cells in 50% matrigel were implanted subcutaneously into 6-8 week old irradiated nude mice. When the tumor sizes reached between 250-350 mm^3 drugs or vehicle were administered through bolus tail vein injection. Mice were injected with 1 mg/kg of antibody drug conjugates treated four times every four days (Q4dx4). Tumor volume is measured twice a week for the first 50 days and once weekly thereafter by a Caliper device and calculated with the following formula: Tumor volume=(length×width)/2. Results were compared across studies by normalizing the tumor regression of the drug-treated mice by dividing the tumor volume by the vehicle-treated tumor volume (T/C).
Six compounds were tested in the three different MDA-MB-361-DYT2 xenograft studies to determine their anti-tumor activity. […] To compare the results of compounds in the three studies, anti-tumor activity was normalized by dividing the drug-treated tumor volume by the vehicle-treated tumor volume (T/C).

BT474 (breast cancer) = experiment: In vitro cell assay, MTS cell viability 96 hours after treatment; type: cell-based; conditions: unconjugated antibody at equivalent antibody concentrations; HERCEPTIN® in vitro studies
Protocol: as §1

[2] = Rat toxicokinetics, single dose, total antibody and ADC by ELISA; conditions: rats, 0-last of 0-96 hours
[3] = Mouse pharmacokinetics, single dose, total antibody and ADC by ELISA; conditions: mice; single 3 mg/kg dose; 0-last of 0-336 h

## CC[C@H](C)[C@@H]([C@@H](CC(=O)N1CCC[C@H]1[C@H](OC)[C@@H](C)C(=O)N[C@@H](Cc1ccccc1)c1nccs1)OC)N(C)C(=O)[C@@H](NC(=O)[C@]1(C)CCCCN1)C(C)C [#188, (2S)—N-[(2S)-1-{[(3R,4S,5S)-3-methoxy-1-{(2S)-2-[(1R,2R)-1-methoxy-2-methyl-3-oxo-3-{[(1S)-2-phenyl-1-(1,3-thiazol-2-yl)ethyl]amino}propyl]pyrrolidin-1-yl}-5-methyl-1-oxoheptan-4-yl](methyl)amino}-3-methyl-1-oxobutan-2-yl]-2-methylpiperidine-2-carboxamide]
N87 (gastric cancer)
  IC50: 0.283 nM

## CC[C@H](C)[C@@H]([C@@H](CC(=O)N1CCC[C@H]1[C@H](OC)[C@@H](C)C(=O)N[C@@H](Cc1ccccc1)C(=O)Nc1ccc(-c2nc3cc(F)ccc3s2)cc1C)OC)N(C)C(=O)[C@@H](NC(=O)C(C)(C)N)C(C)C [#235]
N87 (gastric cancer)
  IC50: 1.32 nM

## HERCEPTIN®: trastuzumab, monoclonal antibody that interferes with the HER2/neu receptor [reference compound]
[1]
  in vivo efficacy: no significant in vitro potency or in vivo efficacy
BT474 (breast cancer)
  in vitro potency: no significant in vitro potency

## CC[C@H](C)[C@@H]([C@@H](CC(=O)N1CCC[C@H]1[C@H](OC)[C@@H](C)C(=O)N[C@@H](Cc1ccccc1)C(=O)OC(C)(C)C)OC)N(C)C(=O)[C@@H](NC(=O)C(C)(C)NC)C(C)C [#130, N,2-dimethylalanyl-N-[(3R,4S,5S)-1-{(2S)-2-[(1R,2R)-3-{[(2S)-1-tert-butoxy-1-oxo-3-phenylpropan-2-yl]amino}-1-methoxy-2-methyl-3-oxopropyl]pyrrolidin-1-yl}-3-methoxy-5-methyl-1-oxoheptan-4-yl]-N-methyl-L-valinamide]
N87 (gastric cancer)
  IC50: 0.076 nM

## CC[C@H](C)[C@@H]([C@@H](CC(=O)N1CCC[C@H]1[C@H](OC)[C@@H](C)C(=O)N[C@@H](Cc1ccccc1)C(=O)NC(C)(C)C)OC)N(C)C(=O)[C@@H](NC(=O)C(C)(C)NC)C(C)C [#144, N,2-dimethylalanyl-N-{(1S,2R)-4-{(2S)-2-[(1R,2R)-3-{[(1S)-1-benzyl-2-(tert-butylamino)-2-oxoethyl]amino}-1-methoxy-2-methyl-3-oxopropyl]pyrrolidin-1-yl}-2-methoxy-1-[(1S)-1-methylpropyl]-4-oxobutyl}-N-methyl-L-valinamide]
N87 (gastric cancer)
  IC50: 0.182 nM

## H(C)-vc-MMAE: trastuzumab cysteine conjugate comprising MMAE with vc linker
[2]; Dose 3
  AUC (0-last) ADC: 1080^3 μg * Hours/mL
  AUC (0-last) Ab: 2950^3 μg * Hours/mL
[2]; Dose 10
  AUC (0-last) ADC: 3930^3 μg * Hours/mL
  AUC (0-last) Ab: 10600^3 μg * Hours/mL
[2]; Dose 30
  AUC (0-last) ADC: 13400^3 μg * Hours/mL
  AUC (0-last) Ab: 18400^3 μg * Hours/mL
[3]
  AUC (0-last) ADC: 1600 µg·h/mL
  AUC (0-last) Ab: 3290 µg·h/mL
